Test results from patent US6028222A (priority 1996, dated 2000).

Assay: Stabilization of dilute paracetamol solution by free radical scavengers (formula A)
Type: physicochemical
Conditions: 1 mg/ml; 48 hours
Experimental: The solutions thus prepared were divided in 10 ml, 100 ml or 80 ml capacity vials, stoppered with a Bromobutyl stopper and capped with an aluminium cap. The preparation was examined for any pink color development.
After autoclaving at 121° C. for 20 minutes, the vials were stored for 48 hours, either in the presence of actinic light at 5500° K. at room temperature or at 70° C. in the dark (formula A).

SMILES: OCC(O)CS (stereo not drawn) [α-monothioglycerol]
- color at 70° C.: colorless
- color upon exposure to light: colorless
